Values quoted from earlier work as cited in patent US7361766B2, “Bicyclic heterocycles as cannabinoid receptor modulators” (Bristol-Myers Squibb Company, priority 2005, dated 2008).

Details: chronic administration for two weeks

Q: With `Cc1c(C(=O)NN2CCCCC2)nn(-c2ccc(Cl)cc2Cl)c1-c1ccc(I)cc1` [AM-251] as the compound, how does the adipose tissue mass read?
A: decreased adipose tissue mass
